# Laboratory results: patent US12570752B2, “Combination therapy with an anti BCMA antibody and a gamma secretase inhibitor” (priority 2019, dated 2026)
# Details: 2.5 mg/kg as two doses of 1.25 mg/kg on day 1 & day 8 compared to Q3W dosing
substance,measurement,value
belantamab mafodotin,reduction in the maximum concentration,~25%
